Results reported in PubChem BioAssay AID2662 (National Center for Advancing Translational Sciences (NCATS), 2010).
Where “and” joins values, the source holds several entries; their conditions need not be identical. Identical values can stand only once. This is a selection; strong and weak results do not stand in their true shares. Calls of active or inactive are those of the source. Calls follow the shape of the dose curve; as a rule, active = well fitted inhibition curve with a large enough effect in the polarisation, with a control signal flat (not every such curve was filed as active); inconclusive = small, poorly fitted or top-dose-only effect, or effect the other way, or a change in a side signal; inactive = no such curve, though single readings can be large or run the other way; the % refers to the polarisation.

Amino acid sequences for entries named in this document (tags omitted).
UniProt Q03164, whole entry, looked up: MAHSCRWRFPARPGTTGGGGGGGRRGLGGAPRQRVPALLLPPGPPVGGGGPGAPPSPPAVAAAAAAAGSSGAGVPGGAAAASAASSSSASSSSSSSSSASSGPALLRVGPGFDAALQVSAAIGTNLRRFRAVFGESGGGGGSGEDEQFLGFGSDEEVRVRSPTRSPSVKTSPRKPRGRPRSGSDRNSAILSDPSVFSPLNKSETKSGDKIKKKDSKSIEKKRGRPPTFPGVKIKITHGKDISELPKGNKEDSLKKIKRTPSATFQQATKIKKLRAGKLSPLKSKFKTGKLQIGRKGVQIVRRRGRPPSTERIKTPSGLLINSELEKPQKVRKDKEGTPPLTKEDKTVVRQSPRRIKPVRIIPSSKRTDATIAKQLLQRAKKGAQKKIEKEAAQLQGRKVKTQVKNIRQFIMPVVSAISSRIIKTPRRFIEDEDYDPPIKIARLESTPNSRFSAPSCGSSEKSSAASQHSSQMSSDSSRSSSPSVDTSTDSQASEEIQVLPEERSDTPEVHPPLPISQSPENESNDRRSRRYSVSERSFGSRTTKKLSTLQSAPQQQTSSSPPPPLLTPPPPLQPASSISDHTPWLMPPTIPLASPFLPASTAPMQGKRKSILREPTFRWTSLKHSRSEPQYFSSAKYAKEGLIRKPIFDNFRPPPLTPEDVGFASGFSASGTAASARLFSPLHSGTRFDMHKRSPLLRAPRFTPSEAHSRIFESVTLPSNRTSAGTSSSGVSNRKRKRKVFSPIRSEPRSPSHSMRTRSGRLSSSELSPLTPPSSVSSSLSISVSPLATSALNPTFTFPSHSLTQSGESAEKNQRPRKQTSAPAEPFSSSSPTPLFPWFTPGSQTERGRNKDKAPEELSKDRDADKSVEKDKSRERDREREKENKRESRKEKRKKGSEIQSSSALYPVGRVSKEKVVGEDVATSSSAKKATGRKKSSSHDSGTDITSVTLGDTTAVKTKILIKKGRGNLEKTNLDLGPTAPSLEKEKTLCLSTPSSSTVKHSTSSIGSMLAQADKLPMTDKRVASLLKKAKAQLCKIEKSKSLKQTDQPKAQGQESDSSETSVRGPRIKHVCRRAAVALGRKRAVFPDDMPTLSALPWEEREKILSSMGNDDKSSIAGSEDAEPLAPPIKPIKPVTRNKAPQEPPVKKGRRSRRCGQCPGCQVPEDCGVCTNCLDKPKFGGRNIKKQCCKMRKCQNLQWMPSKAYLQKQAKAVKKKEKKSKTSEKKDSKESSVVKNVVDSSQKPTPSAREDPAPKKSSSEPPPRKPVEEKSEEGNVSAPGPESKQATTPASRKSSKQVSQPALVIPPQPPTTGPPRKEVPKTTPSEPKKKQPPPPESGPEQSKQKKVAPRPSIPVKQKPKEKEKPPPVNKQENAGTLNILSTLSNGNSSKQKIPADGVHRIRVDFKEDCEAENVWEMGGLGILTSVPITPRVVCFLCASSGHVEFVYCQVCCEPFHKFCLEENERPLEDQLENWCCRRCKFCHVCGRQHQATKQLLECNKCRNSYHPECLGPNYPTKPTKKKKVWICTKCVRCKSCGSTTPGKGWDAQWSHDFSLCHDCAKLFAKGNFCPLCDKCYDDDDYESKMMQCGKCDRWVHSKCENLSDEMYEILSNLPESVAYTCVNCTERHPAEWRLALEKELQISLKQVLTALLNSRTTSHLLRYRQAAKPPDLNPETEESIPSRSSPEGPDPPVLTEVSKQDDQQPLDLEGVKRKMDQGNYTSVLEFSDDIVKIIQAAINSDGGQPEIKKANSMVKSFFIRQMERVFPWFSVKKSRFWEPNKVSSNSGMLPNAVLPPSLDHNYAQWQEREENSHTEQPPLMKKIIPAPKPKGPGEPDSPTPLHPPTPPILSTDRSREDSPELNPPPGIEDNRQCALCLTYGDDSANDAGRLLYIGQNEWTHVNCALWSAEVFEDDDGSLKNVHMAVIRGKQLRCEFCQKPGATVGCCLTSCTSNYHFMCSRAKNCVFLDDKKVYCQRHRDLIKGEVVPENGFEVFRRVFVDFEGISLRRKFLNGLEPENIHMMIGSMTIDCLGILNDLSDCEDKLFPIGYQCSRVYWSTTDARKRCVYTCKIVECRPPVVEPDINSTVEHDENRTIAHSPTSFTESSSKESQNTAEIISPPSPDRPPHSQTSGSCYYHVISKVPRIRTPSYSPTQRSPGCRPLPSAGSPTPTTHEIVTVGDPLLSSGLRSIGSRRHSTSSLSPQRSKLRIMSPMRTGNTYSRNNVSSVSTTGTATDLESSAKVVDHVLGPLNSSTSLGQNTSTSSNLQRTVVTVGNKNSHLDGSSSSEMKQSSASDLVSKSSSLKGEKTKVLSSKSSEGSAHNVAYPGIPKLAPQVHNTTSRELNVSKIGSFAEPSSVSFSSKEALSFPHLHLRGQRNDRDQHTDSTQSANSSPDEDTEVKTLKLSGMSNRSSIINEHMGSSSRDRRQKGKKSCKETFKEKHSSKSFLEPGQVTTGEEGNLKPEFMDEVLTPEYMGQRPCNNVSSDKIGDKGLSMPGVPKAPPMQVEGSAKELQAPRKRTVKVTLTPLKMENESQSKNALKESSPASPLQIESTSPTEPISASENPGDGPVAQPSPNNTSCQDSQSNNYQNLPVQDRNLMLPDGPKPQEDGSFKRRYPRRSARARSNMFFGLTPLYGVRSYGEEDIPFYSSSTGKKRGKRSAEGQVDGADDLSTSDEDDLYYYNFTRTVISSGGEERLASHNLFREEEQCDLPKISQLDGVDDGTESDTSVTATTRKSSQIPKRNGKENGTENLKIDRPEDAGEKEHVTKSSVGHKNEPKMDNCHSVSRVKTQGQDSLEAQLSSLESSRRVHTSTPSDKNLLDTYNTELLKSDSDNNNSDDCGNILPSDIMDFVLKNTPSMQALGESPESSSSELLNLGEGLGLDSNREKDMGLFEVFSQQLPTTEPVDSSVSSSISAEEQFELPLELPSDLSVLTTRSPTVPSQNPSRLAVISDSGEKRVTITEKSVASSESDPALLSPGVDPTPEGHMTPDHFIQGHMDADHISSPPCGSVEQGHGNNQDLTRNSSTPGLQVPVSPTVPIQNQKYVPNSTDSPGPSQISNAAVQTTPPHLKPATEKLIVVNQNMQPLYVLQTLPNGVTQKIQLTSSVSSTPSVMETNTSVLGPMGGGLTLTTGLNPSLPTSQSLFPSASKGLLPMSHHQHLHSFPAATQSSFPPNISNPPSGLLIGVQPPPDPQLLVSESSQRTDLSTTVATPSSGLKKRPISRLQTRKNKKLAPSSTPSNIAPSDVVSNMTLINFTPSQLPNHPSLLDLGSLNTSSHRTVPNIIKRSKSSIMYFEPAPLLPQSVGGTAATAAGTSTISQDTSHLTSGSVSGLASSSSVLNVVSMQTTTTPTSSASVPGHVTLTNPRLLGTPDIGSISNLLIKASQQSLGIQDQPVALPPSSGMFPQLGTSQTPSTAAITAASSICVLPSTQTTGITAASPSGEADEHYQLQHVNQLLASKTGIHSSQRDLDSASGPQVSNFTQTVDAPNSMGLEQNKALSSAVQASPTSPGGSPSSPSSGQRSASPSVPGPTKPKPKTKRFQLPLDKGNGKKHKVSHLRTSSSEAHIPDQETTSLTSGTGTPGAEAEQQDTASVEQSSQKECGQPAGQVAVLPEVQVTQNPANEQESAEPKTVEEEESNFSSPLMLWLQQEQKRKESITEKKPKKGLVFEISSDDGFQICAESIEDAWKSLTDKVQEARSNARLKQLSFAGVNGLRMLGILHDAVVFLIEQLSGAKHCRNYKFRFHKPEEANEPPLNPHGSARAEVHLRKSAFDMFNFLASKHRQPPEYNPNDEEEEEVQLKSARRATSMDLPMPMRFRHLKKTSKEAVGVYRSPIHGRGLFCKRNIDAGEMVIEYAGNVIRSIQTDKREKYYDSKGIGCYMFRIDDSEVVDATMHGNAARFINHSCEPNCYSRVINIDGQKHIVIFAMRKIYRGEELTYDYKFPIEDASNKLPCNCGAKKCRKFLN

Target: Histone-lysine N-methyltransferase 2A (Homo sapiens) (UniProt Q03164)
Test: qHTS Fluorescence Polarization Assay for Inhibitors of MLL CXXC domain - DNA interaction
Conditions: MLL-CXXC / FITC-HOXA9 DNA fluorescence polarization; at 115 µM (top of the series)

Structure (SMILES)	activity change, negative = inhibition
O=C(O)CNc1ccc([As](=O)(O)O)cc1	inactive: -4.41%
O=[N+]([O-])c1cccc(NC2=NCC(CBr)S2)c1 (stereo not given)	inactive: -1.81%
O=[N+]([O-])c1ncn(CCn2ncnc2[N+](=O)[O-])n1	inactive: -4.72%
CC(C)(C)C(=O)NC(Sc1ccncn1)C(Cl)(Cl)Cl (stereo not given)	inactive: -0.115%
O=C(Nc1cc([As](=O)(O)O)ccc1O)c1ccccc1	inactive: 12.6%
CC1CCN(C(=O)Oc2c(Cl)cc(Cl)c3cccnc23)CC1	inactive: -20.8%
CC(C)=N/N=C(\N)N[N+](=O)[O-]	inactive: -9.08%
CN(C)C(=O)OCCc1n(C)cc[n+]1C	inactive: 1.32%
CCN(/C(=N/P(=O)(N1CCOCC1)N1CCOCC1)N1CCOCC1)c1ccc(OC)cc1	inactive: -0.395%
Nc1ccc([As](=O)(O)c2ccc(N)cc2)cc1	inactive: -14.4%
C[N+]1=C2C=CC=CC=C2SC12C([N+](=O)[O-])=CC([N+](=O)[O-])=C[C-]2[N+](=O)[O-] (stereo not given)	inactive: -19.8%
Cc1ccc(NP(=O)(Oc2ccccc2)Oc2ccccc2)nc1	inactive: 3.13%
O=[N+]([O-])c1cc([N+](=O)[O-])c(CCNc2ccccc2)c([N+](=O)[O-])c1	inactive: -2.12%
CC(=O)N1C2C3N(C(C)=O)C1C1N(C(C)=O)C(C(N1C(C)=O)N3C(C)=O)N2C(C)=O	inactive: 0.721%
O=[N+]([O-])c1cccc2n[nH]nc12	inactive: 14.6%
COc1ccc(C2=NCC(CBr)S2)cc1 (stereo not given)	inactive: 11.3%
Oc1ccccc1CNc1ccccn1	inactive: 8.02%
O=C(NC(Sc1ccncn1)C(Cl)(Cl)Cl)c1ccccc1 (stereo not given)	inactive: 4.34%
Cc1c2non([O-])c-2c(C)[n+](=O)[n+]1[O-]	inactive: -21.8%
Nc1cc(N)c2nonc2c1[N+](=O)[O-]	inactive: -3.15%
CC(C)CC(=O)NC(Sc1ccc(Cl)cc1)C(Cl)(Cl)Cl (stereo not given)	inactive: -7.93%
CN1CCCC(OC(=O)C(c2ccccc2)c2ccccc2)C1 (stereo not given)	inactive: -1.45%
Clc1ccc(Cl)c(NC2=NCC(CBr)S2)c1 (stereo not given)	inactive: 14.1%
COc1ccccc1OP(=O)(Nc1ccc(C)cn1)Oc1ccccc1OC	inactive: 3.9%
Cc1ccc(OP(=O)(Nc2nccs2)Oc2ccc(C)cc2)cc1	inactive: 5.92%

Structure (SMILES)	activity change, negative = inhibition
Cc1ccc(N/C(=N/P(=O)(N2CCOCC2)N2CCOCC2)N2CCOCC2)cc1	inactive: 2.36%
NC(=O)c1cc([N+](=O)[O-])cc([N+](=O)[O-])c1N	inactive: 0.999%
Nc1cccc2ccc([As](=O)(O)O)cc12	inactive: -23.3%
CCN(N=Nc1nonc1N)c1nonc1N	inactive: 7.06%
O=[N+]([O-])c1cc([N+](=O)[O-])c(CCN2CCOCC2)c([N+](=O)[O-])c1	inactive: -2.76%
Cc1cc(SC(NC(=O)c2ccc(F)cc2)C(Cl)(Cl)Cl)ncn1 (stereo not given)	inactive: 2.39%
CCOP(=O)(Nc1ccccc1)OCC	inactive: -7.39% and inactive: 9.72%
CN(C(=O)Cc1ccc(Cl)c(Cl)c1)[C@H]1CCCC[C@@H]1N1CCCC1	inactive: 0.651% and inactive: -17.9%
Cc1ccc(NP(=O)(Oc2ccccc2F)Oc2ccccc2F)nc1	inactive: -7.65%
O=P(Nc1nc2ccc(Cl)cc2s1)(c1ccccc1)c1ccccc1	inactive: 1.58%
O=C(O)c1ccccc1[As](=O)(O)O	inactive: -4.9%
Cc1ccccc1OP(=O)(Nc1ccccn1)Oc1ccccc1C	inactive: -12.5%
CN(C)C(=O)Oc1noc2ccccc12	inactive: -8.31%
O=C(OC1CN2CCC1CC2)c1ccccc1 (stereo not given)	inactive: 5.22% and inactive: -4.03%
CCC(=O)N1C2C3N(C(=O)CC)C1C1N(C(=O)CC)C(C(N1C(=O)CC)N3C(=O)CC)N2C(=O)CC	inactive: 5.06%
COC(=O)c1cc2c(s1)N=C(c1ccccc1)N(C)P2(=O)N1CCOCC1 (stereo not given)	inactive: -3.53%
CC(=O)NC(SC(=S)N(CC(C)C)CC(C)C)C(Cl)(Cl)Cl (stereo not given)	inactive: 0.262%
Cc1ccc(OP(=O)(Nc2ccccn2)Oc2ccc(C)cc2)cc1	inactive: 6.58%
c1ccc(-c2nn[nH]n2)c(-c2nn[nH]n2)c1	inactive: -1.8%
Cc1ccc(NP(=O)(Oc2cccc(C)c2)Oc2cccc(C)c2)nc1	inactive: 0.812%
CCOC(=O)NC(Sc1ccccc1)C(Cl)(Cl)Cl (stereo not given)	inactive: -2.57%
O=C(NC1CCS(=O)(=O)C1)NP(=S)(Oc1ccccc1)Oc1ccccc1 (stereo not given)	inactive: -0.962%
CCNC(=S)/N=C(\N)N[N+](=O)[O-]	inactive: -1.11%
CC(=O)Nc1ccc([As](=O)(O)O)c(O)c1	inactive: -11.1%
CC(=O)Nc1ccc(Oc2c([N+](=O)[O-])cc([N+](=O)[O-])cc2[N+](=O)[O-])cc1	inactive: -1.26%

Structure (SMILES)	activity change, negative = inhibition
C[C@H]1OP(=O)(Oc2ccccc2)C[C@@H]2O[C@@H]21 (stereo not given in full)	inactive: 0.926%
C[C@@H]1C=CCP(=O)(Oc2ccccc2)O1 (stereo not given in full)	inactive: 11.4%
CC(=O)c1ccc(N2CC2c2ccncc2)cc1 (stereo not given)	inactive: -16.9%
CC(C)(C)C(=O)NC(Sc1ccccc1)C(Cl)(Cl)Cl (stereo not given)	inactive: -7.51%
O=P1(Nc2nc3ccc(Cl)cc3s2)COc2ccccc2O1 (stereo not given)	inactive: -3.21%
CCOc1ccc(C2=NCC(CBr)S2)cc1 (stereo not given)	inactive: 10.4%
c1nnnn1CCn1cnnn1	inactive: -0.977%
O=P(Nc1nccs1)(c1ccccc1)c1ccccc1	inactive: 2.02%
CC(C)C(=O)NC(Sc1ccccc1)C(Cl)(Cl)Cl (stereo not given)	inactive: 13.6%
O=C(OC1CN2CCC1CC2)c1cccc(Cl)c1 (stereo not given)	inactive: 10.3%
C(Cc1nn[nH]n1)Cc1nn[nH]n1	inactive: 7.02%
Nc1ccc([As](=O)(O)c2ccc([N+](=O)[O-])cc2)cc1	inactive: -2.27%
O=[As](O)(c1ccccc1)c1ccc(O)cc1	inactive: 16.7%
CC(=O)NC(SC(=S)N(C)C)C(Cl)(Cl)Cl (stereo not given)	inactive: -5.05%
O=[N+]([O-])c1ncn(CCn2cnc([N+](=O)[O-])n2)n1	inactive: 3.66%
O=[N+]([O-])c1ccc(O)c(/C=N/Nc2ccc([N+](=O)[O-])cc2[N+](=O)[O-])c1	inactive: -14.3%
CN(C(=O)Cc1ccccc1)[C@H]1CC[C@@]2(CCCO2)C[C@@H]1N1CCCC1	inactive: -10.8%
O=P(Nc1nc2ccccc2s1)(c1ccccc1)c1ccccc1	inactive: -1.38%
C[C@H]1OP(=O)(Oc2ccccc2)[C@H](O)[C@H](O)[C@H]1N=[N+]=[N-] (stereo not given in full)	inactive: 5.75%
CN(C)C1(CNC(=O)c2ccc(Cl)c(S(N)(=O)=O)c2)CCCCC1	inactive: -5.25%
O=P(Nc1ccccn1)(c1ccc(Br)cc1)c1ccc(Br)cc1	inactive: 1.31%
Nc1cccc([As](=O)(O)c2ccccc2)c1	inactive: 7.23%
Cc1ccc(OCC(=O)OC2CN3CCC2CC3)cc1 (stereo not given)	inactive: 6.65%
O=[As](O)(c1cccs1)c1cccs1	inactive: -0.813%
O=P1(Nc2ccc(Br)cn2)COc2ccccc2OC1	inactive: -5.44%

Structure (SMILES)	activity change, negative = inhibition
O=P1(Nc2ncccn2)COc2ccccc2OC1	inactive: -7.02%
CN(C)C1(CNC(=O)c2ccc(S(C)(=O)=O)cc2)CCCCC1	inactive: -3.4%
O=C(/C=C/c1ccccc1)OC1CN2CCC1CC2 (stereo not given)	inactive: 12.3%
Cc1nn(-c2ccccc2)c2c1P(=O)(N1CCOCC1)N(C)C(c1ccccc1)=N2 (stereo not given)	inactive: -8.25%
Cc1ccc(C(=O)OC2CN3CCC2CC3)cc1 (stereo not given)	inactive: -25.8%
CC1CCC(C(C)C)C(OP(=O)(Nc2ccccn2)c2ccccc2)C1 (stereo not given)	inactive: -1.75%
CN(C(=O)Cc1ccc(Cl)c(Cl)c1)[C@@H]1CCCC[C@H]1N1CCCC1	inactive: -0.14% and inactive: -12%
CC(C)/C=N\N=C(\N)N[N+](=O)[O-]	inactive: -3.25%
O=[As](O)(c1ccccc1Br)c1ccccc1Br	inactive: -4.98%
Clc1n[nH]nc1-c1nn[nH][15n]1	inactive: -6.27%
CC(C)(C)C(=O)NC(Sc1ncccn1)C(Cl)(Cl)Cl (stereo not given)	inactive: 3.38%
CCC1=CC2Cc3nc4ccc(Cl)cc4c(N)c3C(C1)C2 (stereo not given)	inactive: 39.5%
O=P1(Nc2ccccn2)COc2ccccc2OC1	inactive: 8.98%
CCOP(=O)(NC(=NC(C)c1ccccc1)NC(C)c1ccccc1)OCC (stereo not given)	inactive: -6.58%
CCOP(=O)(Nc1ccc(C)cn1)OCC	inactive: -4.83%
CN(CCCl)Cc1cc(Cl)c(NC2=NCCN2)c(Cl)c1	inactive: 3.67%
COc1cc(C2NCCC3(OCCO3)C2(C)C)cc(OC)c1OC (stereo not given)	inactive: 5.61%
CCOP(=O)(Nc1cccc2ccccc12)OCC	inactive: 1.71%
Cc1ccc(NCCc2c([N+](=O)[O-])cc([N+](=O)[O-])cc2[N+](=O)[O-])cc1	inactive: -5.15%
Nc1cccc2c([As](=O)(O)O)cccc12	inactive: -6.36%
CCCOP(=S)(Nc1nc(N)cc(=O)[nH]1)OCCC	inactive: -3.66%
Cc1cccc(OCC(=O)OC2CN3CCC2CC3)c1 (stereo not given)	inactive: 7.41%
O=[As](O)(c1cccc(O)c1)c1cccc(O)c1	inactive: 52.1%
O=C(OC1CN2CCC1CC2)c1ccc(Cl)cc1 (stereo not given)	inactive: -1.2%
CN(C(=O)Cc1ccc(Cl)c(Cl)c1)[C@@H]1CC[C@]2(CCCO2)C[C@H]1N1CCCC1	inactive: -21.3%
